The assay has as its target β5c of hu c-20S (Homo sapiens (Human), UniProt P20618+P28074). Briefly: IC50 determination against β5c of human constitutive proteasome (suc-LLVY-AMC hydrolysis).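 Further: IC50 obtained by fitting initial reaction velocities to a dose-dependent inhibition model, with SDS present as proteasome activator.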 The format is biochemical. The conditions noted are these: read-out: IC50 (μM) hu c-20S, 0.2 nM c-20S, 25 μM suc-LLVY-AMC.

Among the data in patent publication US20240043470A1, “MACROCYCLIC COMPOUNDS AS PROTEASOME INHIBITORS” (CORNELL UNIVERSITY, priority 2017, published 2024) are IC50 values, retold here.

`CCC(=O)N[C@H]1Cc2cccc(c2)Oc2cccc(c2)C[C@@H](c2nc3ccccc3[nH]2)NC(=O)[C@H](CCc2ccccc2)NC1=O`: the IC50 was 4.85 µM. The same measure for `CCC(=O)N[C@H]1Cc2cccc(c2)Oc2cccc(c2)C[C@@H](c2nc3cccc(F)c3[nH]2)NC(=O)[C@H](CCc2ccccc2)NC1=O`: 6.08 µM.
